AlphaSeq binding of Ab-95 light chain variants to a spike HR2 peptide

The measurements come from Engelhart et al. 2022 (doi:10.1038/s41597-022-01779-4) through the FLAb antibody collection.

The target is the same throughout: PDVDLGDISGINAS, from the HR2 region of SARS-CoV-2 spike.

Parent: Ab-95, a human scFv built as VH, three GGGGS repeats, VL. Only the CDRs of the light chain vary.
VH: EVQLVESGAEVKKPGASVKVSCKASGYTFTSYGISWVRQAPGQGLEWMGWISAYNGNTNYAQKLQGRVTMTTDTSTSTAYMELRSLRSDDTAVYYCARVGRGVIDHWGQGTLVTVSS
VL: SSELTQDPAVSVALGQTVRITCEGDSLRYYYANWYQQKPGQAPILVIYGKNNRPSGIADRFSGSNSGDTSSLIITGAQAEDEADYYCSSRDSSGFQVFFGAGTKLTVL

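The parent was found by panning a naive human phage display library on the peptide. Library AAYL52 holds single substitutions and randomly drawn double and triple substitutions in the CDRs. The assay is AlphaSeq: two haploid yeast populations carry antibody and antigen on their surface. The frequency of each diploid, read from paired DNA barcodes, reflects how well the two displayed proteins bind. Scores were corrected for input abundance and mapped to Kd with protein pairs of known affinity run in the same pool. There are three technical replicates.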

Variants are written as CDR1, CDR2 and CDR3 of the light chain (limits as in the source). Parent: EGDSLRYYYAN, GKNNRPS, SSRDSSGFQVF.
Scale: log10 of Kd in nM, estimated from mating counts; low values are strong binders.
"nd" means that the variant was in the library but no mating with the target was seen in that replicate; the authors take this as a sign of poor binding, and no number exists.
Three control strains display no target. For library AAYL52, 28% of the pairings with them gave a signal, with a median of 3.91 and one signal in twenty below 2.90, so weak values seen in few replicates may be background. The control count says in how many pairings with the empty strains this scFv gave a signal, with their mean in brackets.
For reference, the parent read 2.31 as the reference entry and 2.25 as a member of this library.

CDR-L1 | CDR-L2 | CDR-L3 | log10 Kd, replicates | control signals
EGESLRKYYAN | GKNNRPS | SSRRSSGFQVF | 2.81 / 2.69 / 2.44 | 3/9 (3.22)
EGDSLRYCYAN | GQNNRPS | SSRDSHGFQVF | 4.31 / nd / nd | 0/9
EGPSLRYLNAN | GKNNRPS | SSRDSSGFQVF | 1.82 / 1.97 / 1.37 | 4/9 (3.97)
EGDSLRHYYAN | GKNNRPW | SSRDSSGFQVF | 2.30 / 2.32 / 3.09 | 2/9 (3.77)
EGDSLRYYYAN | GKENEPS | TSRDSSGFQVF | 5.36 / 4.10 / nd | 2/9 (4.15)
EGDNLRGYYAN | GKNNRPS | SSRDSSLFQVF | nd / nd / nd | 0/9
EGDSLRYYYAN | GKVNRPS | SQWDSSGFQVF | nd / 5.87 / nd | 1/9 (3.84)
LGDSLRYYYAK | GKNNRPS | SSRDSSGFQVF | nd / 5.94 / 4.42 | 6/9 (3.95)
EGDSNRYYYAN | GKNNRPS | SSRDSSGFCDF | 4.10 / nd / nd | 0/9
PGDSLRYYYAN | GTNNRPS | SSRDSSGVQVF | nd / nd / 3.07 | 1/9 (3.54)
EGDSLRNYYAN | GLNNRPS | SSRDSSGFQVC | 1.39 / 1.17 / 0.98 | 5/9 (3.97)
EGDSLRYYYAN | GKNGRPS | SSRCSPGFQVF | nd / 4.08 / nd | 2/9 (3.88)
EYDNLRYYYAN | GKNNRPS | SSRDLSGFQVF | 4.30 / nd / nd | 1/9 (5.31)
EFDSLRYYYGN | GKNNRPS | SSRDSSCFQVF | 4.74 / nd / nd | 4/9 (3.84)
EGDMLRYWYAN | GKNNRPS | SSRDSSGSQVF | 2.70 / 2.65 / 1.99 | 4/9 (4.19)
MGDSLRYYYAN | GKNNRPS | SSRDASGFQVR | 2.59 / 2.63 / 2.90 | 1/9 (3.63)
EDDSLRSYYAN | GKNNRPS | SSRDPSGFQVF | 2.76 / 2.90 / 2.62 | 5/9 (3.78)
EPDSLRYYRAN | GKNNRPS | SSRDSSGRQVF | 4.98 / nd / nd | 4/9 (4.34)
EWQSLRYYYAN | GKNNRPS | CSRDSSGFQVF | nd / nd / nd | 2/9 (4.00)
EGDSLRYYYAN | GKNNRPS | SHWDASGFQVF | 4.52 / 4.02 / nd | 6/9 (4.25)
ELDSLYYYYAN | GKNNRPS | SSLDSSGFQVF | 3.49 / 2.89 / nd | 4/9 (3.61)
EGDTMYYYYAN | GKNNRPS | SSRDSSGFQVF | nd / nd / 3.30 | 2/9 (4.18)
EGDSLRYYYAN | GKNNQPS | SSRDSSGFQVF | 2.91 / 4.02 / 2.83 | 3/9 (3.66)
EGDSLRWYYAN | GKNNVPS | QSRDSSGFQVF | 3.21 / nd / nd | 1/9 (3.69)
EGDSLRYYMAN | GKNAIPS | SSRDSSGFQVF | 3.75 / 2.96 / 2.51 | 1/9 (3.42)
EGDSSRYYYAN | GKNNRPS | SSRDSMGNQVF | 3.60 / nd / 4.25 | 2/9 (3.43)
SGDSLRYYYAN | GKNNRPS | SSRDGSGFQPF | 2.25 / 2.09 / 1.88 | 4/9 (4.86)
EGDSLRYYYAN | SKNNVPS | DSRDSSGFQVF | nd / nd / nd | 2/9 (3.92)
EGDSLFYYYAN | GWNNRPS | SSRDYSGFQVF | 4.46 / nd / nd | 3/9 (3.99)
GGDSDRYYYAN | GKNNRDS | SSRDSSGFQVF | nd / nd / nd | 0/9
EGDSLRYYYAN | CFNGRPS | SSRDSSGFQVF | nd / 5.54 / nd | 2/9 (3.87)
IGDSLRYMYAN | GKNNRPS | SSRDSSGFQVF | 1.82 / 1.57 / 1.21 | 2/9 (3.79)
TGDSLRYYYEN | GKNNRPS | SSRDSSGFQAF | 4.31 / nd / nd | 0/9
EGDSLRYYYAN | VKNNRAS | SSRDSSGFAVF | nd / nd / nd | 0/9
EGDSLRYDYAN | GKNNRPS | SSRDSSGFQVF | 1.76 / 2.90 / 2.11 | 2/9 (4.12)
EGTSLRYYYAI | GKNNRPS | SSRDSSGFQVY | nd / 3.81 / nd | 0/9
EGDSLRYYYAN | GFNNGPS | SGRDSSGFQVF | 3.61 / nd / nd | 2/9 (4.01)
TGDSLRYYFAN | GKNNRPS | ISRDSSGFQVF | 2.67 / 2.58 / 2.12 | 5/9 (3.74)
HGDSQRDYYAN | GKNNRPS | SSRDSSGFQVF | 2.83 / 2.45 / 2.38 | 3/9 (3.75)
EGDSTRYYYAN | GFNNRPS | SSRDQSGFQVF | 4.19 / 4.13 / 2.57 | 2/9 (3.63)
EGDSLRYYYAN | GKNNRLS | TSRDSSGFQVF | 3.70 / nd / 3.19 | 2/9 (3.32)

From the list, the first 3 with no signal in any replicate:

CDR-L1 | CDR-L2 | CDR-L3 | log10 Kd, replicates | control signals
EGDNLRGYYAN | GKNNRPS | SSRDSSLFQVF | nd / nd / nd | 0/9
EWQSLRYYYAN | GKNNRPS | CSRDSSGFQVF | nd / nd / nd | 2/9 (4.00)
EGDSLRYYYAN | SKNNVPS | DSRDSSGFQVF | nd / nd / nd | 2/9 (3.92)